In patent US6635265B1, “Materials and methods useful for the control of insect larvae” (University of Florida Research Foundation, Inc., priority 1999, dated 2003):

Test system: mosquito larvae
Experiment: Feeding TMOF and its analogue peptides to mosquito larvae (LD50)
Format: in vivo, Aedes aegypti
Settings: 100 μl microtiter plates, 7 days, diet of autoclaved yeast (1 mg/ml)
Text: TMOF can traverse the gut epithelium, enter the hemolymph and bind a gut receptor (Borovsky, D. and F. Mahmood (1995) “Feeding the mosquito Aedes aegypti with TMOF and its analogs; effect on trypsin biosynthesis and egg development,” Regulatory Peptides 57:273-281.; Borovsky, D., C. A. Powell, J. K. Nayar, J. E. Blalock, and T. K. Hayes (1994) “Characterization and localization of mosquito-gut receptors for trypsin modulating oostatic factor using complementary peptide immunochemistry” FASEB J. 8:350-355.). […] This characteristic permits testing of TMOF and its analogs by feeding them to mosquito and other pest larvae. To determine whether truncated TMOF peptides have an effect on larval growth and development, a series of peptides were synthesized and tested by feeding them to mosquito larvae at concentrations of 0.5 to 5.0 mg/ml (Table 1). Individual, newly hatched Aedes aegypti larvae were maintained in separate microtiter wells on a diet of autoclaved yeast (1 mg/ml). The diet was supplemented with TMOF peptides (Table 1). An identical number of larvae which were maintained on yeast served as a control. […] All control groups survived and larval growth and development was normal. Since larvae swallow only a small portion of the yeast particles that adsorbed the peptides, it is assumed that approximately 1 to 20 ng are taken orally at the high concentrations.

| Substance | LD50 mM ± S.E.M. |
| --- | --- |
| DY: TMOF analogue peptide, SEQ ID NO. 23 (TMOF peptide) | 3 3.0 ± 0.8 mM |
| YD: TMOF analogue peptide, SEQ ID NO. 35 (TMOF peptide) | 3 1.24 ± 0.06 mM |
